Test results taken from PubChem BioAssay AID1117340 (Cheminformatics & Chemogenomics Research Group (CCRG), …, 2015).
Only a part is listed here, and it is no random draw. The source made the active and inactive calls.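 The calls were made as follows: active = compound that reduces growth-factor-driven endothelial tube area in a mixed cell culture, no cutoff stated; inactive = the rest.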

experiment: inhibition of endothelial tube formation, primary screen, imaging, VEGF stimulated, CD31 staining, tube area, NPC library (AID 1117340); details: VEGF-stimulated ADSC/ECFC co-culture, at 10 µM, active compounds read high

SMILES	tube area decrease
OCCSCCO	inactive: -16.6%
